# Screening data as filed in PubChem.
# Sampled rows, rich in hits. Any-hit rate of the full collection: about 0.43%.
# EPAC1 ag = EPAC1 (human) agonism; O95398; EPAC1 agonist qHTS, biochemical assay; response scale: 100% = response to 6.5 mM cAMP; Potency, µM (series often up to 154 µM), for inactives: at the highest dose activation, hits mostly activators; 0.073% of 360,000 active; AID 720707; further: nearly all actives have a fitted effect of over 60% in size
#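 Read-out is the fluorescence drop as BODIPY-GDP leaves Rap1B (480 nm excitation, 540 nm emission), recorded every 5 minutes over 30 minutes. Reactions held 100 nM EPAC1, 250 nM Rap1B–BODIPY-GDP and 50 uM GDP, with 6.5 mM cAMP setting full activation.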
# EPAC2 antag = EPAC2 (human) antagonism; Q8WZA2; EPAC2 GEF exchange of Rap1B-BODIPY-GDP, fluorescence; Potency, µM (titrated, usually from 114 µM), for inactives: at the top dose activity, negative = inhibition, hits mostly inhibitors; 0.18% of 360,000 active; AID 720708; further: on the % scale 0 is the no-effect control and ±100 the full control effect; nearly all actives have a fitted effect of over 45% in size
# Rango-impB inh = prevents formation of the Rango-importin beta complex; Q14974; Rango CFP/YFP FRET sensor + importin beta, 45 min; Potency, µM (top dose mostly 92.2 µM), for inactives: top-dose inhibition of complex formation; 0.031% of 340,000 active; AID 540263; calls by dose curve;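 further: 0% = DMSO wells and 100% = buffer wells lacking importin beta; nearly all actives have a fitted effect of over 15% in size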
#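 FRET biosensor (snurportin 1 IBB flanked by EYFP and cerulean), 50 nM, with compound 5 min, then 0.125 microM importin beta in PBS, 1 mM DTT, 0.02% Tween-20, 0.1% BSA. CFP/YFP ratio read after 45 min at room temperature; pre-read flags interference.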
# EPAC2 ag = EPAC2 (human) agonism; Q8WZA2; EPAC2 activation, biochemical qHTS; response scale: 100% = 6.5 mM cAMP response; Potency, µM (top dose mostly 154 µM), inactives show at the highest dose activation, usual class: activators; 0.079% of 360,000 active; further: nearly all actives have a fitted effect of over 50% in size
#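 Setup: EPAC2 100 nM, labeled Rap1B complex 250 nM, free GDP 50 uM. Compound titrations pinned in, brief spin, 5 min room temperature incubation. Kinetic fluorescence read over 30 min, normalized to 6.5 mM cAMP.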
# EPAC1 antag = blocks human EPAC1 exchange factor. O95398. EPAC1 GEF assay, Rap1b-BODIPY-GDP exchange fluorescence. Potency, µM (doses to about 115 µM), for inactives: at the top dose activity change, negative = inhibition, most hits filed as inhibitors. 0.14% of 360,000 active. AID 720709;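 further: plate controls were vehicle for no effect and positive control for full effect; nearly all actives have a fitted effect of over 50% in size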
# Rango release inh = inhibition of RanGTP-driven Rango-importin beta dissociation; Biochemical FRET Rango-importin beta, RanGTP-induced dissociation; Potency, µM (titrated, usually from 46.1 µM), inactives show at the top dose activity change, negative = inhibition; AID 540253; 0.071% of 340,000 active; calls by dose curve; further: % of control where 0% means no effect; nearly all actives have a fitted effect of over 45% in size
#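 Rango/importin beta premix (0.1/0.25 uM final), PBS + 1 mM DTT + 0.02% Tween-20 + 0.1% BSA; cpd 5 min RT; FRET pre-read; + RanGTP-RCC1 (0.6 uM Ran, 2 mM GTP, 0.2 uM RCC1); 45 min RT; FRET post-read, ex 430, em 486/530 nm.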
# The depositor's hits bear a star; ? = inconclusive; nt = not tested or not shown; ! = not confirmed by another sample. Unless noted, the call rests on the fitted dose curve; in most records, active means well fitted curve in the direction sought with a large enough effect; inconclusive means small, poorly fitted or top-dose-only effect, or another doubt; inactive means no such curve, though single readings can be large; an effect the other way counts as inactive or inconclusive. Potency means the concentration at half of the fitted maximal effect.
entry | compound | EPAC1 ag | EPAC2 antag | Rango-impB inh | EPAC2 ag | EPAC1 antag | Rango release inh
1 | CCCCCCCCN1C(=O)[C@H](CC(=O)NCCCC)C[C@@]2(C(=O)OC)CC(C)(C)CC=C12 | -26.1% | ? | nt | -9.8% | -25.1% | nt
2 | Cc1cc(-c2ccccc2C(=O)O)on1 | 4.2% | 1.0% | -0.1% | 3.5% | 7.4% | 17.4%
3 | O=C(O)c1ccccc1C1=Nc2ccc(O)cc2Oc2cc(O)ccc21 | 100µM* | 87.6% | ? | ? | 65.8% | ?
4 | COc1ccc(C(C(=O)Nc2c(C)cccc2C)N2CCN(C)CC2)cc1 (stereo not given) | 2.5% | -0.2% | nt | 5.0% | 4.7% | nt
5 | CC1=CCC[C@@H]2[C@@](C)(CC/C(C)=C/C(=O)O)[C@H](C)CC[C@@]12C | -18.8% | 31.6µM* | 1.2% | -8.9% | ? | -4.5%
6 | C[C@@H]1CC[C@@]23COC(=O)C2=CCC[C@@H]3[C@@]1(C)CC/C(=C/CO)CO | -16.4% | 5.8% | -1.7% | -1.1% | -20.1% | -0.8%
7 | CCCC(=O)N1CCCC1(C)C(=O)NCCc1ccccn1 (stereo not given) | -0.1% | 10.5% | nt | 5.5% | -9.6% | nt
8 | COc1ccc(C2CC(c3cccs3)=NN2c2ccc(C=O)cc2)cc1 (stereo not given) | 89.1µM* | 22.0% | ? | 13.5% | 108.5% | ?
9 | CC1(C(=O)NCc2ccccc2)CSCC(=O)N1CCOc1ccccc1 (stereo not given) | 1.1% | -7.8% | nt | -1.0% | -0.9% | nt
10 | O=c1cc2oc3cc(O)c(O)cc3c(-c3ccccc3[N+](=O)[O-])c-2cc1O | 0.4% | ? | ? | 5.3% | 79.4µM* | -3.5%
11 | O=c1cc(-c2ccccc2Cl)oc2cccc(O)c12 | -10.3% | 14.4% | -1.9% | -6.6% | 5.6% | 1.7%
12 | CO[C@H]1CN(C)C(=O)c2ccc(NC(=O)NC(C)C)cc2OC[C@H](C)NC[C@H]1C | 5.5% | 6.2% | nt | 9.5% | -19.0% | nt
13 | O=C(Nc1ccc(F)c(Cl)c1)c1cc(C2CCCCN2C(=O)c2ccccc2)on1 (stereo not given) | 7.2% | -1.7% | nt | 19.4% | -7.1% | nt
14 | Cc1cccc(-c2cnc(C(O)c3ccc(Cl)cc3C)[nH]2)c1 (stereo not given) | -9.8% | -13.5% | nt | 7.8% | 4.3% | nt
15 | C=CCn1c(-c2ccc(S(=O)(=O)N3CCOCC3)cc2)csc1=Nc1ccccc1 | 1.6% | 0.0% | 1.8% | 7.94µM* | 6.4% | 4.6%
16 | CC(=O)c1cccc(N=c2scc(-c3ccc(S(=O)(=O)N4CCOCC4)cc3)n2CCO)c1 | 17.6% | -16.6% | -1.2% | 12.6% | -14.4% | 0.2%
17 | CCCCCNC(=O)C(c1ccnc2ccccc12)n1c(=O)c(-c2ccccc2)nc2ccccc21 (stereo not given) | 4.0% | 0.6% | nt | 2.3% | -3.1% | nt
18 | CC(=O)Nc1scc(-c2ccccc2)[n+]1-c1ccc(C)cc1 | 2.0% | 31.6µM* | 3.7% | 2.5% | -5.2% | 12.4%
19 | FC(F)(F)c1ccccc1Cc1c(-c2ccc(Cl)cc2)nc2ccc(Cl)cn12 | 8.1% | 56.2µM* | nt | -0.3% | -19.7% | nt
20 | FC(F)(F)c1ccccc1Cc1c(-c2ccccc2)nc2ccc(Cl)cn12 | 7.7% | -28.6% | nt | -1.8% | -9.0% | nt

# Next part:
entry | compound | EPAC1 ag | EPAC2 antag | Rango-impB inh | EPAC2 ag | EPAC1 antag | Rango release inh
21 | CCOC(=O)c1cc2n(c1/N=C/N(C)C)-c1ccccc1C2=O | 100µM* | 47.6% | ? | 100µM* | 137.2% | ?
22 | CC1(C(=O)NCc2ccccc2)CN(S(C)(=O)=O)CC(=O)N1CCc1ccc(O)cc1 (stereo not given) | 7.1% | 2.1% | nt | 5.0% | -13.8% | nt
23 | CCN(CC)Cc1cc(Oc2ccc(O)c(CN(CC)CC)c2)ccc1O | 14.1% | 12.1% | nt | 5.2% | -2.7% | nt
24 | NC(=NCCCCCCN=C(N)/N=C(\N)Nc1ccc(Cl)cc1)/N=C(\N)Nc1ccc(Cl)cc1 | -17.0% | ? | 51.7µM*! | 6.6% | -19.3% | ?
25 | O=C(C[C@H]1CC[C@@H](NC(=O)C2CC2)[C@@H](CO)O1)NCc1ccccc1Cl | -8.6% | -1.6% | nt | 5.6% | 10.2% | nt

# An excerpt of these results, with two lines to a compound:
# Values run as follows: EPAC1 ag	EPAC2 antag	Rango-impB inh	EPAC2 ag	EPAC1 antag	Rango release inh
(21) CCOC(=O)c1cc2n(c1/N=C/N(C)C)-c1ccccc1C2=O
 : 100µM*	47.6%	?	100µM*	137.2%	?
(22) CC1(C(=O)NCc2ccccc2)CN(S(C)(=O)=O)CC(=O)N1CCc1ccc(O)cc1 (stereo not given)
 : 7.1%	2.1%	nt	5.0%	-13.8%	nt
(23) CCN(CC)Cc1cc(Oc2ccc(O)c(CN(CC)CC)c2)ccc1O
 : 14.1%	12.1%	nt	5.2%	-2.7%	nt
